Earlier results in patent US11965206B2, “Method of dosing a patient with multiple drugs using adjusted phenotypes of CYP450 enzymes” (priority 2018, dated 2024).

By UniProt entry, the sequences of proteins in these tests, tags left out.
UniProt P10635, whole entry: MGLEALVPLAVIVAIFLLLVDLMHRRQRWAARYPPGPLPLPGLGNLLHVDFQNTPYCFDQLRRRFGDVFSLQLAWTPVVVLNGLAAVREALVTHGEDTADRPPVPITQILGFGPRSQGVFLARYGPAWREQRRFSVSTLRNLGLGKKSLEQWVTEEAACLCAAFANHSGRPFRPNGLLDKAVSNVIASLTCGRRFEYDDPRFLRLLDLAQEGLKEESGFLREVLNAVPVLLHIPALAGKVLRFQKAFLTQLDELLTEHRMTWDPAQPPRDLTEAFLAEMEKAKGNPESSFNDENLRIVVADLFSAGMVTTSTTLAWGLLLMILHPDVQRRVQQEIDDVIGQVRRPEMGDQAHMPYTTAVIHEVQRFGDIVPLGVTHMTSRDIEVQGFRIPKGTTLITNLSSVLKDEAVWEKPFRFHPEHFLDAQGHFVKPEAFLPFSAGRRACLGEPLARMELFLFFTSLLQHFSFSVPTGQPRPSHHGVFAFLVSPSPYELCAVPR
UniProt P05177, whole entry: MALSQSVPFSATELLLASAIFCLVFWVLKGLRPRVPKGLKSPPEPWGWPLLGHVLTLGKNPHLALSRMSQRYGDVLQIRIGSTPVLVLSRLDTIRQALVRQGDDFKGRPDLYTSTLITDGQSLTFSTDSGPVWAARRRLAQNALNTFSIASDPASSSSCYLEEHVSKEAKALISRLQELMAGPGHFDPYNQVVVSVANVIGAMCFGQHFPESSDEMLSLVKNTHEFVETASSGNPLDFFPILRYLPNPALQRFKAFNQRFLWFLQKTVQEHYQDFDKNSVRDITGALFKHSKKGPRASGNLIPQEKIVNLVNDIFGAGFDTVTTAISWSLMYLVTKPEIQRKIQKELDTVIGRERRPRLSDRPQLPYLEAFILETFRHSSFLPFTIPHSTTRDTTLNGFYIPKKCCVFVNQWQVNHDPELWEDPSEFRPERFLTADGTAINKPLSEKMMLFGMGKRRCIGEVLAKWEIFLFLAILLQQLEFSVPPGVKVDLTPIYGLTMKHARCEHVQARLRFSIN

Key:
CYP450 enzyme 2D6 = CYP450 enzyme 2D6 (Homo sapiens, UniProt P10635); details: found in drug databases
CYP450 enzyme 1A2 = CYP450 enzyme 1A2 (Homo sapiens, UniProt P05177); details: found in drug databases

For `Cc1cc2c(s1)Nc1ccccc1N=C2N1CCN(C)CC1` [Zyprexa], the “substrate for 2D6” value (CYP450 enzyme 2D6) is given as “substrate” and the “substrate for 1A2” value (CYP450 enzyme 1A2) is given as “substrate”.
